From PubChem BioAssay AID602244 (Sanford-Burnham Center for Chemical Genomics, 2012) come the findings set out here.

The chains behind the UniProt entries cited, without tags or fusion partners. Where a name states a change or a piece, a line headed by the entry shows the natural chain unless it says otherwise.
UniProt O00574: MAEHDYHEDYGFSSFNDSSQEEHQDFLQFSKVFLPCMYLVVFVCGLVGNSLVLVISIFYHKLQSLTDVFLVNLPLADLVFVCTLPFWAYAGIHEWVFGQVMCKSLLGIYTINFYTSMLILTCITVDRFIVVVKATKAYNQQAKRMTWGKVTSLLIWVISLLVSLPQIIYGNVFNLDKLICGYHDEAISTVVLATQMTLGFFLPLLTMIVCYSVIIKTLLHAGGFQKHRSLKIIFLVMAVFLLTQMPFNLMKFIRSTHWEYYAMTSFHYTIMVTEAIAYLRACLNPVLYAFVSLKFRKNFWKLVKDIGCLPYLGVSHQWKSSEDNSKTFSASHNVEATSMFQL

The entries are a selection whose mix differs from that of the whole data set. Activity calls are given as the source filed them. No stated cut-off is given here; in the data, active means inhibition above about 34% (passing the limit was not always enough); inactive means the rest.

In the assay the target is C-X-C chemokine receptor type 6 (Homo sapiens) (UniProt O00574). As to the kind of experiment: blockade of CXCL16-induced CXCR6 beta-arrestin recruitment – cell-based, luminescence, CHO-K1 PathHunter, 1536-well, primary screen (AID 602244).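 Further: antagonist mode with CXCL16 agonist at 10 nM final; 0% = 10 nM CXCL16 with DMSO and 100% = unstimulated wells without agonist.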 Conditions: at 20 µM, active compounds read high. (In general: Recruitment of arrestin is a read-out of receptor activation apart from second messengers.)
Turning to `CCC1=CC2Cc3nc4ccc(Cl)cc4c(N)c3C(C1)C2` (stereo not drawn), the inhibition (commonly the drop in the measured response relative to a control, in per cent) is inactive: 0.1%.

For `O=P1(Nc2ccccn2)COc2ccccc2OC1`, the inhibition is inactive: 3.3%.

As to `CN(CCCl)Cc1cc(Cl)c(NC2=NCCN2)c(Cl)c1`, the inhibition is inactive: 4.5%.

With `CCOP(=O)(Nc1ccc(C)cn1)OCC`, the inhibition was inactive: 8.6%.

For the molecule `CC(C)(C)C(=O)NC(Sc1ncccn1)C(Cl)(Cl)Cl` (stereo not drawn), the inhibition was inactive: -1.4%.

Take `Clc1n[nH]nc1-c1nn[nH][15n]1`: the inhibition is inactive: -5.8%.

As for `O=P1(N(CCCl)CCCl)NCCC(C(F)(F)F)O1` (stereo not drawn), the inhibition was inactive: -5.9%.

Consider `Nc1cccc2c([As](=O)(O)O)cccc12`, for which the inhibition is inactive: -9%.

As to `Cc1ccc(NCCc2c([N+](=O)[O-])cc([N+](=O)[O-])cc2[N+](=O)[O-])cc1`, the inhibition was inactive: 8.3%.

In the case of `CCCOP(=S)(Nc1nc(N)cc(=O)[nH]1)OCCC`, the inhibition was inactive: 2%.

Regarding `CCOP(=O)(Nc1cccc2ccccc12)OCC`, the inhibition is inactive: 0.8%.

In the case of `COc1cc(C2NCCC3(OCCO3)C2(C)C)cc(OC)c1OC` (stereo not drawn), the inhibition is inactive: 2.1%.

With `O=C(OC1CN2CCC1CC2)c1ccc(Cl)cc1` (stereo not drawn), the inhibition was inactive: 1.2%.

Turning to `CS(=O)(=O)c1ccc(Cl)c(NC(=O)COC(=O)C(O)(c2ccccc2)c2ccccc2)c1`, the inhibition was inactive: 1.4%.

Regarding `COc1cc(C(=O)NCC2(N3CCOCC3)CCCCC2)cc(Cl)c1OC(C)C`, the inhibition was inactive: 1.9%.

On to `O=[As](O)(O)c1cccnc1`, for which the inhibition was inactive: -2%.

Regarding `O=[As](O)(c1cccc(O)c1)c1cccc(O)c1`, the inhibition is inactive: -2%.

In the case of `Cc1cccc(OCC(=O)OC2CN3CCC2CC3)c1` (stereo not drawn), the inhibition was inactive: -1.7%.

In the case of `NC(=O)Nc1ccc([As](=O)(O)O)cc1`, the inhibition is inactive: 4.6%.

In the case of `CN(C(=O)Cc1ccccc1)[C@@H]1CC[C@]2(CCCO2)C[C@H]1N1CCCC1`, the inhibition is inactive: -6.6%.

Consider `CCOP1(=S)c2c(C)nn(CCC#N)c2N=C(c2ccc(F)cc2)N1C` (stereo not drawn), for which the inhibition was inactive: 2.8%.

`N#CCCN(C(=O)COC(=O)C(O)(c1ccccc1)c1ccccc1)c1ccc(F)cc1`: the inhibition was inactive: 4.7%.

`CN(C(=O)Cc1ccc(Cl)c(Cl)c1)[C@H]1CC[C@@]2(CCCO2)C[C@@H]1N1CCCC1`: the inhibition was inactive: -3.1%.

As for `CN(C)C(=O)c1cc([N+](=O)[O-])cc2c1-c1c(cc([N+](=O)[O-])cc1[N+](=O)[O-])C2=O`, the inhibition was active: 30.8%.

Turning to `O=[N+]([O-])c1ccc2c(c1)nnn2O`, the inhibition is inactive: 5.2%.

For the molecule `O=P(Nc1nccs1)(c1ccccc1)c1nc2ccccc2s1` (stereo not drawn), the inhibition was inactive: -10.2%.

For the molecule `O=P(Nc1nccs1)(Oc1ccccc1)Oc1ccccc1`, the inhibition is inactive: 1.6%.

On to `CCOP1(=S)c2c(C)nn(CCC#N)c2N=C(c2ccccc2F)N1C` (stereo not drawn), for which the inhibition was inactive: -5.4%.
